# Antibody variant affinities, Ab-95 light chain, assay 2

Antigen: PDVDLGDISGINAS, a 14-residue peptide of the SARS-CoV-2 spike HR2 region.

The variants keep the heavy chain, the linker and the frameworks of Ab-95 (scFv order VH, a (GGGGS)3 linker, VL).
VH: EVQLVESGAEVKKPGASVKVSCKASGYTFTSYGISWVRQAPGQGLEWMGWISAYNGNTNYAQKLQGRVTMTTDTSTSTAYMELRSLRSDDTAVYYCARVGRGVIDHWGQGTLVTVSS
VL: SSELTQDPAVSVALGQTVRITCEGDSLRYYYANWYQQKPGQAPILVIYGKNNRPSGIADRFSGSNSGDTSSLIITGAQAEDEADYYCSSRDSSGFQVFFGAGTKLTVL

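The starting antibody came from a phage panning campaign against this peptide. Variants in AAYL52 differ from the parent at up to three CDR positions; double and triple changes were sampled at random. In AlphaSeq, yeast of one mating type display the scFv and yeast of the other type display the target. The frequency of each diploid, read from paired DNA barcodes, reflects how well the two displayed proteins bind. Read counts were normalised to the haploid input and turned into Kd by a linear fit to BCL2-family pairs of known affinity, for each replicate. The assay was run in three technical replicates.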

Variants are written as CDR1, CDR2 and CDR3 of the light chain (limits as in the source). Parent: EGDSLRYYYAN, GKNNRPS, SSRDSSGFQVF.
Affinities are written as log10 Kd with Kd in nM; a lower number is a better binder.
"ND" marks a missing value. The strain was present, yet no cells mated with the target were sequenced in that replicate, which points to weak or no binding.
For reference, the parent read 2.31 as the reference entry and 2.25 as a member of this library.
Empty control strains, which show no peptide, gave a signal in 28% of pairings with library AAYL52; the median was 3.91 and 95% of these signals were weaker than 2.90. No background was subtracted. Also given: how often the same scFv was detected with the empty control strains.

MGDSLRYYYAN, GKNNRPA, SSRDSSGNQVF: 2.08, 2.23, 1.53 (controls 3 of 9).
EGDSLRCSYAN, GKNNRPS, SSRDSSGFQAF: 2.18, 2.60, 1.88 (controls 4 of 9).
EQDGLRYYYAN, GKNNRAS, SSRDSSGFQVF: 1.58, 1.59, 1.13 (controls 3 of 9).
EGDSLRYYYAN, GKEPRPS, SGRDSSGFQVF: ND, 3.92, 3.81 (controls 3 of 9).
EGDSGRYYYAC, GSNNRPS, SSRDSSGFQVF: 4.18, 4.06, ND (controls 5 of 9).
EGDSLRYYIAN, GTNNRPS, SSRDSSGFQVP: 4.70, 3.25, 4.40 (controls 1 of 9).
EGDSLRYMYAN, GKNNRYS, SCRDSSGFQVF: 1.79, 2.31, 1.21 (controls 2 of 9).
EGHSLRYYYAN, GKNNRPS, SSRDASGFQVM: 2.56, 2.44, 1.95 (controls 3 of 9).
EGDSLRYYYAN, GKNNRPS, FSRDSSWFQVF: 2.48, 2.10, 2.51 (controls 3 of 9).
EGDSLRYYYAN, GKNIRPS, SSRDSSGFQVF: 2.66, 2.31, 2.10 (controls 6 of 9).
EGDSLRYYYAN, NKNNRPS, ISRPSSGFQVF: 3.74, 4.00, 3.13 (controls 1 of 9).
EGDSWRYYYAN, GKNNRFS, SSRDSSGFQPF: ND, 3.98, 4.40 (controls 4 of 9).
EGDSLRYYKAN, GKNNRPS, SSRDSNGFKVF: 3.93, 2.87, 2.94 (controls 5 of 9).
EGDSLRYYYAN, GKNNRHS, SHRDSAGFQVF: 2.93, 3.60, ND (controls 2 of 9).
EGDSHRYYYAN, GKNNRPV, SSQDSSGFQVF: ND, 3.67, ND (controls 4 of 9).
EGDSLRYYYAN, GKNNRPS, SSTDSSGFQVA: ND, ND, 4.25 (controls 2 of 9).
HGDSLRYEYAN, NKNNRPS, SSRDSSGFQVF: 1.53, 1.31, 1.03 (controls 7 of 9).
EGDSLRRYGAN, GKNNRPS, SSRDSSGFQVK: 3.94, 3.55, 4.30 (controls 4 of 9).
EQDSERYYYAN, GKNNRPS, LSRDSSGFQVF: 4.57, ND, 4.48 (controls 1 of 9).
EWDSMRYYYAN, GKNNRPS, SPRDSSGFQVF: ND, ND, 2.57 (controls 2 of 9).
EGDSLRYYYAN, GKFNQPS, VSRDSSGFQVF: 3.65, ND, 4.13 (controls 2 of 9).
GGDSLRYYYAN, GENNRPS, SSRDGSGFQVF: 1.74, 2.03, 1.83 (controls 1 of 9).
EGHSWRYYYAN, GKNNRPS, SSRDSSGFQVV: 2.36, 2.63, 2.84 (controls 2 of 9).
EGDPLRYYYAN, GKNNRPS, KSRHSSGFQVF: 3.33, 3.54, 3.71 (controls 2 of 9).
EGDSGRYYYAN, GKNNRPS, YSRNSSGFQVF: 3.26, 3.26, 3.23 (controls 4 of 9).
EGGSLRYYYAN, GKNNRPS, SSRLMSGFQVF: 4.29, ND, ND (controls 2 of 9).
EGDSLRYYYAN, YKGNRPS, SSSDSSGFQVF: ND, 4.03, ND (controls 2 of 9).
EMDSLRYYYAN, GKNNRQS, SSRDSSGLQVF: ND, ND, ND (controls 1 of 9).
EGDSLRYYYAN, GENNRPS, SSRDSSGFRVL: 2.94, 3.04, 2.58 (controls 4 of 9).
EGDSLRFYYAN, GVNNRPS, SSRDSSGSQVF: 2.93, 3.04, 3.95 (controls 1 of 9).
EGDSTRYYYAN, GKNNRLS, RSRDSSGFQVF: 4.72, 4.92, 3.79 (controls 3 of 9).
EGDSLRYYYHN, GKHNRPS, SSRDSSMFQVF: ND, ND, ND (controls 5 of 9).

Excerpt, the first 3 entries:

| CDR-L1 | CDR-L2 | CDR-L3 | log10 Kd (nM) by replicate | signal with controls |
|---|---|---|---|---|
| MGDSLRYYYAN | GKNNRPA | SSRDSSGNQVF | 2.08, 2.23, 1.53 | 3 of 9 |
| EGDSLRCSYAN | GKNNRPS | SSRDSSGFQAF | 2.18, 2.60, 1.88 | 4 of 9 |
| EQDGLRYYYAN | GKNNRAS | SSRDSSGFQVF | 1.58, 1.59, 1.13 | 3 of 9 |

Source: Engelhart et al. 2022 (doi:10.1038/s41597-022-01779-4), MIT Lincoln Laboratory and A-Alpha Bio; data file from the FLAb repository.